The text below walks through data of EP4831176A1, “BICYCLIC FUSED HETEROAROMATIC RING DERIVATIVE, AND PHARMACEUTICAL COMPOSITION AND USE THEREOF” (dated 2026).

The chains behind the UniProt entries cited, without tags or fusion partners.
UniProt O75530, whole entry: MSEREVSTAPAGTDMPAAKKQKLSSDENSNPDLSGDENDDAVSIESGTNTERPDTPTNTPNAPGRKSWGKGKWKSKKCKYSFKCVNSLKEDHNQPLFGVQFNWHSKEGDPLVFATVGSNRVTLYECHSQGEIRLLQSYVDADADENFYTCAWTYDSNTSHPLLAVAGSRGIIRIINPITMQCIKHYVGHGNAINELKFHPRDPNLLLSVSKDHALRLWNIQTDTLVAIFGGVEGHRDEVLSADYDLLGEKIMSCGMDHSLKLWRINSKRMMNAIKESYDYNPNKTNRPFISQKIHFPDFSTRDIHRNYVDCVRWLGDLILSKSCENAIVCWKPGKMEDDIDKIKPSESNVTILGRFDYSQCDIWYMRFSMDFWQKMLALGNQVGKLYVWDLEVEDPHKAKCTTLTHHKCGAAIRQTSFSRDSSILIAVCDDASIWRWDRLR

One series addresses EED protein (Homo sapiens, UniProt O75530). The experiment in a line: EED protein degradation in Karpas-422 cells, In-cell western (ICW). The settings on record: 18 hours incubation. From the text:
In this experiment, In-cell western (ICW) method was used to quantitatively analyze the EED protein expression level in Karpas-422 cells to detect the degradation activity of the compounds on the target protein. The specific steps were as follows: • 1. Karpas-422 cells were purchased from Nanjing Cobioer (Catalog No. CBP60629), subcultured and maintained in logarithmic growth state using RPMI-1640 complete medium (containing 10% v/v fetal bovine serum) according to the supplier's recommended conditions. […] One day before cell seeding, a 384-well plate was coated with 30 µL of coating buffer (phosphate buffered saline containing 30 µg/mL poly-D-lysine) at room temperature for 2 hours. The coating solution was then discarded, and the plate was washed once with 90 µL of phosphate buffered saline, which was then discarded. The plate was allowed to air dry naturally in a clean bench, wrapped around the edges with Parafilm to prevent moisture, and stored in a 4°C refrigerator until use. • 3. Before cell seeding, cells were collected in a centrifuge tube, centrifuged at 250 rcf for 3 minutes, and the culture medium was discarded. The cells were resuspended in fresh complete medium, and 20 µL of the cell suspension was taken to calculate the cell concentration using a Countstar cell counter. After adjusting the density, cells were seeded into the prepared coated plate at 15,000 cells/45 µL and pre-incubated in a 37°C, 5% CO2 incubator for 4 hours. • 4. The negative and positive control groups were treated with 5 µL of control solution (serum-free medium containing 1% v/v DMSO). Compound gradient dilutions were prepared using the control solution, and 5 µL of the dilutions were added to the corresponding culture wells. The final concentration of DMSO in the test was 0.1% v/v. Subsequently, the plate was incubated in a 37°C, 5% CO2 incubator for 18 hours. • 5. The culture plate was removed, and cells were fixed by directly adding 10 µL of fixative solution (phosphate buffered saline containing 3% v/v glutaraldehyde) to the cells and incubating at room temperature for 30 minutes. The liquid was discarded. Subsequently, cells were treated with 30 µL of permeabilization staining solution (phosphate buffered saline containing 0.1% v/v Triton X-100 and 20 µg/mL Hoechst 33342) at room temperature for 30 minutes. The permeabilization solution was discarded, and the fluorescence value (excitation at 360 nm, emission at 460 nm) was read on a microplate reader. • 6. 50 µL of repair solution (50 mM citric acid buffer) was added to all wells, and the plate was incubated at 70°C for 2 hours on a constant temperature incubation shaker. The microplate was then removed, equilibrated to room temperature, and the liquid was discarded. • 7. A sufficient amount of antibody dilution buffer (Tris Buffered Saline-Tween solution containing 1% w/v bovine serum albumin) was prepared and stored in a 4°C refrigerator until use. • 8. Primary antibody dilution (EED antibody diluted 1:1000 with antibody dilution buffer) was prepared. 30 µL of antibody dilution buffer without antibody was added to the negative control group. 30 µL of the primary antibody dilution was added to the cells in the other groups, and the plate was incubated overnight at 4°C. • 9. The primary antibody dilution was discarded. The plate was washed 3 times with 90 µL of Tris Buffered Saline-Tween solution, and the wash solution was discarded. Secondary antibody dilution (HRP-linked antibody diluted 1:500 with antibody dilution buffer) was prepared, and 30 µL was added to the cells. The plate was incubated at room temperature for 2 hours. • 10. The secondary antibody dilution was discarded. The plate was washed 3 times with 90 µL of Tris Buffered Saline-Tween solution, and the wash solution was discarded. 30 µL of TMB substrate solution was added, and the plate was incubated at room temperature in the dark for 15 minutes. Then, 30 µL of stop solution (2 M sulfuric acid) was added to terminate the reaction. […]

Series [1] relates to human B-cell non-Hodgkin lymphoma Karpas-422 cell line. The series can be described thus: Subcutaneous xenograft tumor model of Karpas-422 cell line in BALB/c nude mice. How it is done:
• Animal species and strain: BALB/c nude mice • Administration history: no history of administration • Sex, age, weight: female, 6-8 weeks, body weight 18-25 grams • Breeder/supplier: Shanghai Model Organisms Center, Inc. • Acclimation period: no less than 3-7 days • Room: SPF area room • Indoor temperature: 20-26°C • Indoor relative humidity: 40-70% • Lighting: fluorescent lamp illumination, 12-hour light (08:00-20:00) and 12-hour dark • Animal housing: 2-6 animals per cage (same administration group) • Food: unlimited access to feed (irradiated sterilized, Shaanxi Qinle Pharmaceutical Chemical Co., Ltd., China) • Water: unlimited access to drinking water (tap water purified by ultrapure water filtration system) • Female BALB/c nude mice were purchased from the supplier and used to select animals with suitable body weight range and tumor size for enrollment. All animals were specific pathogen-free, approximately 6-8 weeks old upon arrival at the laboratory.
The human B-cell non-Hodgkin lymphoma Karpas-422 cell line used in this experiment was cultured in RPMI-1640 medium supplemented with 10% FBS in a 37°C incubator with 5% CO2. Within ten passages of continuous culture, 100 µL of PBS containing 1 × 10^7 Karpas-422 cells was mixed with an equal volume of Matrigel, and the mixture was subcutaneously inoculated into the right side of the mouse near the armpit, with an inoculation volume of approximately 200 µL. Before inoculation, mice were anesthetized with 3-4% isoflurane.
When the tumors grew to an average size of approximately 70-150 mm^3, tumor-bearing mice were randomly assigned to groups based on tumor volume and body weight, with 8 mice per group. The day of grouping and administration was defined as Day 0. […] According to the results disclosed in the reference (J. Med. Chem. 2021, 64, 14540-14556), Compound D1 (CAS: 2585648-55-9) was selected as the positive compound for this experiment.
The control group was administered intraperitoneally with 70% aqueous solution containing 5% glucose + 30% aqueous solution containing 15% HP-β-CD. Table 12. Grouping and Administration Regimen
Tumor volume: For the subcutaneous xenograft model, tumor volumes were measured twice weekly after grouping. The tumor volume (V) was calculated as follows: V = (length × width^2) / 2. The relative tumor volume (RTV) for each nude mouse was calculated as: RTV = Vt / V0, where Vt is the measured volume at each time point, and V0 is the volume at the start of treatment.
Animal body weight: After grouping, mouse body weight was measured and recorded twice weekly.
The negative control group was the control group, and the treatment groups were the groups administered D1 or H105. Results are presented as mean ± S.E.M. Comparisons between two groups were performed using Dunnett's multiple comparison test. A p-value < 0.05 was considered statistically significant.

On EED protein, `Cn1nc(C2CCC(=O)NC2=O)c2ccc(N3CCC(CN4CCC(c5ncc(-c6cnc(NCc7c(F)ccc8c7CCO8)n7cnc(Cl)c67)cn5)CC4)CC3)cc21` (centres unmarked) had a Dmax of 65%. The same measure, in the same setting: the same measure for `O=C1CCC(Nc2ccc(N3CCN(C4CCN(Cc5ncc(-c6cnc(NCc7c(F)ccc8c7CCO8)n7cnc(Cl)c67)cn5)CC4(F)F)CC3)c(F)c2)C(=O)N1` (centres unmarked): 65%. `Cn1nc(C2CCC(=O)NC2=O)c2ccc(N3CCC(CN4CCC(n5cnc(-c6cnc(NCc7c(F)ccc8c7CCO8)n7cnc(Cl)c67)n5)CC4)CC3)cc21` (centres unmarked) gave a Dmax at EED protein of 62%. `Cn1nc(C2CCC(=O)NC2=O)c2ccc(N3CCC(CN4CCC(c5ccc(-c6cnc(NCc7c(F)ccc8c7CCO8)n7cnnc67)cc5)CC4)CC3)cc21` (centres unmarked) registered a Dmax at EED protein of 74%. In addition, the T/C in series [1] (Compound D1 50 mg/kg p.o. QD, Compound H105 10 mg/kg p.o. QD) turned out to be 2.69%. Moreover, in series [1] (Compound D1 at 50 mg/kg, Compound H105 at 10 mg/kg), the “in vivo anti-tumor activity (in words)” value is “could effectively inhibit tumor growth”. The “Average body weight D0” value in series [1] (Day 0 (day of grouping and administration), Compound D1 50 mg/kg p.o. QD, Compound H105 10 mg/kg p.o. QD) was 21.7 g. Also, in series [1] (Day 30, Compound D1 50 mg/kg p.o. QD, Compound H105 10 mg/kg p.o. QD), the “Average body weight D30” value is listed as 21.2 g. The compound further returned an RTV in series [1] (relative tumor volume Vt/V0, Compound D1 50 mg/kg p.o. QD, Compound H105 10 mg/kg p.o. QD) of 0.46. The TGI in series [1] (tumor growth (volume) inhibition rate, Compound D1 50 mg/kg p.o. QD, Compound H105 10 mg/kg p.o. QD) was 103.43%. As for `Cn1nc(C2CCC(=O)NC2=O)c2ccc(N3CCC(CN4CCC(n5cc(-c6cnc(NCc7c(F)ccc8c7CCO8)n7cc(C#N)nc67)cn5)CC4)CC3)cc21` (centres unmarked), on EED protein, the maximal degradation (Dmax) was 59%. Still for that read-out and setting: the figure for `Cc1nc(C2CCN(CC3CN(c4ccc5c(C6CCC(=O)NC6=O)nn(C)c5c4)C3)CC2)ccc1-c1cnc(NCc2c(F)ccc3c2CCO3)n2cnc(Cl)c12` (centres unmarked) is 68%. On the same count and under the same terms, the same measure for `Cn1nc(C2CCC(=O)NC2=O)c2ccc(N3CCC(CN4CCC(c5ccc(-c6cnc(NCc7c(F)ccc8c7CCO8)n7cnc(F)c67)cc5)CC4)CC3)cc21` (centres unmarked): 74%. As for `Cn1nc(C2CCC(=O)NC2=O)c2ccc(N3CCC(CN4CCC(n5cc(-c6cnc(NCc7c(F)ccc8c7CCO8)n7cnc(Cl)c67)c(F)n5)CC4)CC3)cc21` (centres unmarked), the Dmax at EED protein was found to be 62%. `Cn1nc(C2CCC(=O)NC2=O)c2ccc(N3CCC(CN4CCC(c5ccc(-c6cnc(NCc7c(F)ccc8c7CCO8)n7cnc(Cl)c67)nc5)CC4)CC3)cc21` (centres unmarked) had a maximal degradation (Dmax) on EED protein of 71%. On the same count and under the same terms, the figure for `Cn1nc(C2CCC(=O)NC2=O)c2ccc(N3CCC(CN4CCC(n5cc(-c6cnc(NCc7c(F)ccc8c7CCO8)n7cnnc67)cn5)CC4)CC3)cc21` (centres unmarked) is 61%. Still for that read-out and setting: the same measure for `Cn1nc(C2CCC(=O)NC2=O)c2ccc(N3CCC(CN4CCC(c5cnc(-c6cnc(NCc7c(F)ccc8c7CCO8)n7cnc(Cl)c67)cn5)CC4)CC3)cc21` (centres unmarked): 67%; for `Cn1nc(C2CCC(=O)NC2=O)c2ccc(N3CCC(CN4CCC(n5cc(-c6cnc(NCc7c(F)ccc8c7CCO8)n7cnc(Cl)c67)cn5)CC4)CC3)nc21` (centres unmarked): 67%; for `Cc1nc(C2CCN(CC3CCN(c4ccc5c(C6CCC(=O)NC6=O)nn(C)c5c4)CC3)CC2)ccc1-c1cnc(NCc2c(F)ccc3c2CCO3)n2cnnc12` (centres unmarked): 72%. The same measure, in the same setting: the figure for `Cn1nc(C2CCC(=O)NC2=O)c2ccc(N3CCC(CN4CCC(n5cc(-c6cnc(NCc7c(F)ccc8c7CCO8)n7cnc(F)c67)cn5)CC4)CC3)cc21` (centres unmarked) is 68%; for `O=C1CCC(N2Cc3cc(N4CCC(CN5CCC(n6cc(-c7cnc(NCc8c(F)ccc9c8CCO9)n8cnc(Cl)c78)cn6)CC5)CC4)ccc3C2=O)C(=O)N1` (centres unmarked) it is 68%; for `Cn1nc(C2CCC(=O)NC2=O)c2ccc(N3CCC(CN4CCC(c5ccc(-c6cnc(NCc7c(F)ccc8c7CCO8)n7cnc(Cl)c67)cc5)CC4)CC3)cc21` (centres unmarked) it is 55%. With `Cn1nc(C2CCC(=O)NC2=O)c2cc(F)c(N3CCC(CN4CCC(n5cc(-c6cnc(NCc7c(F)ccc8c7CCO8)n7cnc(Cl)c67)cn5)CC4)CC3)cc21` (centres unmarked), the Dmax at EED protein is recorded as 64%. On EED protein, `Cn1nc(C2CCC(=O)NC2=O)c2ccc(N3CC4(CC(CN5CCC(n6cc(-c7cnc(NCc8c(F)ccc9c8CCO9)n8cnc(Cl)c78)cn6)CC5)C4)C3)cc21` (centres unmarked) registered a Dmax of 57%.

On to `Cn1nc(C2CCC(=O)NC2=O)c2ccc(N3CCC(CN4CCC(c5ccc(-c6cnc(NCc7c(F)ccc8c7CCO8)n7cnc(Cl)c67)nn5)CC4)CC3)cc21` (centres unmarked), for which the Dmax on EED protein was 64%. On EED protein, `Cn1nc(C2CCC(=O)NC2=O)c2ccc(N3CCC(CN4CCC(n5cc(-c6cnc(NCc7c(F)ccc8c7CCO8)n7cnc(Cl)c67)cn5)CC4)CC3)cc21` (centres unmarked) showed a Dmax of 73%.

For orientation: Dmax means the greatest extent of degradation seen. A low value points to shallow degradation. For orientation: T/C means the result in the treated group divided by that in the control group, in per cent.
